{"sequences": {"note": "Sequences of proteins named here, by UniProt entry; tags and fusion partners are left off.", "UniProt O60563, whole entry": "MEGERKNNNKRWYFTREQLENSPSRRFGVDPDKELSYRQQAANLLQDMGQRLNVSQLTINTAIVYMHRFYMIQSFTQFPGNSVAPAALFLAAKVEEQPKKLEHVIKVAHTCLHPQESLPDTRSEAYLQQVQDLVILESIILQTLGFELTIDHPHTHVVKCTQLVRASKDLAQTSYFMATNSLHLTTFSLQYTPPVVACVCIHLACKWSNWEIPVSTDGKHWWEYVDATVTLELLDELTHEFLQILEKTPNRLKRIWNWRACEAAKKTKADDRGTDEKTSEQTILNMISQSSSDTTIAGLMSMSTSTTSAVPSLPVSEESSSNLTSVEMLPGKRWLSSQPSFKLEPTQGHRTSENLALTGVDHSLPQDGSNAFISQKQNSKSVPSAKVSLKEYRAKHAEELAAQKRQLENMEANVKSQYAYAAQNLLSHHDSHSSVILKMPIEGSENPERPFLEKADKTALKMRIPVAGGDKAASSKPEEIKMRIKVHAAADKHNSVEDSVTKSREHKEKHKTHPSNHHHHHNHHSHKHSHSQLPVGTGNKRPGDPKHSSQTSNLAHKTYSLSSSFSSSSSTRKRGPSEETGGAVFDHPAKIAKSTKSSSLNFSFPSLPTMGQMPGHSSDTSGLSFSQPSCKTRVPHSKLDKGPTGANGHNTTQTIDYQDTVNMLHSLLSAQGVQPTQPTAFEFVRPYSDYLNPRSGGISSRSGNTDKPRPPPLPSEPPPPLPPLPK", "UniProt P50750, whole entry": "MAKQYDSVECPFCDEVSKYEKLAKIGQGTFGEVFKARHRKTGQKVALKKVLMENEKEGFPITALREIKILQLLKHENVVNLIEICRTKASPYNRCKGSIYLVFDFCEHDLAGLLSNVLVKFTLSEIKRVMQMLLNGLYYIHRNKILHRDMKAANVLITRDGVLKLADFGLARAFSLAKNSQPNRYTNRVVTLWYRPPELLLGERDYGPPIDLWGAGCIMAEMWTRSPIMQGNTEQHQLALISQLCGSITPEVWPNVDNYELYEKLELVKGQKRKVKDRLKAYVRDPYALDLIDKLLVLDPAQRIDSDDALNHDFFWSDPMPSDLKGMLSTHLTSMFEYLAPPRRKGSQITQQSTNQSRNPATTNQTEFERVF"}, "source": "BindingDB's records for doi:10.1021/acs.jmedchem.6b00150", "about": "(University of Nebraska Medical Center, 2016)", "target": "Cyclin-T1/Cyclin-dependent kinase 9 (Homo sapiens, UniProt O60563+P50750)", "experiment": "Inhibition of CDK9/cyclin T1 (unknown origin) using cdk7tide peptide as substrate", "data": [{"smiles": "COc1cc(F)ccc1-c1ccnc(NC(=O)[C@H]2CCC[C@@H](NC(C)=O)C2)c1", "note": "[US9067888, 33]", "values": [{"measurement": "IC50", "value": 3, "unit": "nM"}]}]}
